By UniProt entry, the sequences of proteins in these tests, tags left out.
UniProt P51681, whole entry: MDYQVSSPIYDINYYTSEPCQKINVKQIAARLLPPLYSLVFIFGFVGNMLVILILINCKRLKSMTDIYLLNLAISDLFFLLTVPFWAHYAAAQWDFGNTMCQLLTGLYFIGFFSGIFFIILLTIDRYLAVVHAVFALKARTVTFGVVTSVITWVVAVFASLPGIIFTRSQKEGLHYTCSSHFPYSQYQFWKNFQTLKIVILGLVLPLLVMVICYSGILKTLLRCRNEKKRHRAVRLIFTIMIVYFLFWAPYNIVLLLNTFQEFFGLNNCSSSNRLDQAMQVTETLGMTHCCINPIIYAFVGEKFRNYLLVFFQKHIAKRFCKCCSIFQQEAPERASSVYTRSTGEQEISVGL
UniProt P41597, whole entry: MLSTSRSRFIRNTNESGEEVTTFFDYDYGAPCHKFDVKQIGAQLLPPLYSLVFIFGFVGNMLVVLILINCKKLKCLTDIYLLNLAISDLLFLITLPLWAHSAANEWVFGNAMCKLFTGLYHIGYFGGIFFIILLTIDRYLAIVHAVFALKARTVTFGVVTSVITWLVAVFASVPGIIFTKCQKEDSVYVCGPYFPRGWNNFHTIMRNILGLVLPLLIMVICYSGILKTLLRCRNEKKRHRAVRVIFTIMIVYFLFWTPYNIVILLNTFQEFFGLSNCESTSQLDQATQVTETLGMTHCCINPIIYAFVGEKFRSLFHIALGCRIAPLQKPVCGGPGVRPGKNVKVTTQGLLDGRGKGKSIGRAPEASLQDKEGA
UniProt P10635, whole entry: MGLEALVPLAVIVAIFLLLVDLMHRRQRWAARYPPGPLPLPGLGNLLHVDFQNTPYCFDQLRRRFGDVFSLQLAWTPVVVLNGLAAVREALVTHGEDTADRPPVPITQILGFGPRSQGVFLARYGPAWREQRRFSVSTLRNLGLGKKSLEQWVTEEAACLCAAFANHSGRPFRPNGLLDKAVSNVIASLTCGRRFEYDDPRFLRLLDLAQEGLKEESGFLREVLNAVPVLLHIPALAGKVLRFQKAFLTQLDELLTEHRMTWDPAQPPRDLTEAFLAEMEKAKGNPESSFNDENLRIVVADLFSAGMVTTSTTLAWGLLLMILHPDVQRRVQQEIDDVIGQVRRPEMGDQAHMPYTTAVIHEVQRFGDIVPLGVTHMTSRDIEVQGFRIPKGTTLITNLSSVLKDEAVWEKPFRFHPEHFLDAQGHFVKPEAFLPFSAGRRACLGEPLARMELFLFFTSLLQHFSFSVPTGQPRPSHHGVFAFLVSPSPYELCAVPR
UniProt P05177, whole entry: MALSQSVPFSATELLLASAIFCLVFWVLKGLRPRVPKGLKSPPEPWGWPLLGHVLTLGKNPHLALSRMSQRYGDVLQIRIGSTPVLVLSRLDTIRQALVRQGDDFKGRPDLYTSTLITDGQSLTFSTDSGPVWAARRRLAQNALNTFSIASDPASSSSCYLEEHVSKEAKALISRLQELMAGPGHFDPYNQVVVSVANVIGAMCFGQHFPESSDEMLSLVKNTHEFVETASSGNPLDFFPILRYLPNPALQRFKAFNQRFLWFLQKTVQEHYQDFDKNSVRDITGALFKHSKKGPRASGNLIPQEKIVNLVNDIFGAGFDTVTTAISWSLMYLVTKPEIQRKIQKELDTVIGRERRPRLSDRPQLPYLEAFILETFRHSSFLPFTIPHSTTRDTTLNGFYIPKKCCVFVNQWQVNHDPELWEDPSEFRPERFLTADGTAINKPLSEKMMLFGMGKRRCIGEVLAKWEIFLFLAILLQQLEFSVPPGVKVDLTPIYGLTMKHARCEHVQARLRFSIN
UniProt P08684, whole entry: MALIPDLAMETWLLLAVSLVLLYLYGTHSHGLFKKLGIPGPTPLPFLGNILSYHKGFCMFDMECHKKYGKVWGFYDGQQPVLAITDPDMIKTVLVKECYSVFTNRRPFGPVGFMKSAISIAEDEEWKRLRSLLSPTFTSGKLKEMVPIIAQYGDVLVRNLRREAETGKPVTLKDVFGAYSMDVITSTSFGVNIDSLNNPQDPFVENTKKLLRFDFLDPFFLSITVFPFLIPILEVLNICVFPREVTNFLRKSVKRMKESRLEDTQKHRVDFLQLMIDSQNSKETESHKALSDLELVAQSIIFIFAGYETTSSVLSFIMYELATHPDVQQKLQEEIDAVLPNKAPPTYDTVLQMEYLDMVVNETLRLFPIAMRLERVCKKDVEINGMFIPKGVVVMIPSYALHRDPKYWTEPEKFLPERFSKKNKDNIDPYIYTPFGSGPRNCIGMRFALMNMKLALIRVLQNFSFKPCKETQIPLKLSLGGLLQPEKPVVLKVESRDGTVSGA
UniProt P33261, whole entry: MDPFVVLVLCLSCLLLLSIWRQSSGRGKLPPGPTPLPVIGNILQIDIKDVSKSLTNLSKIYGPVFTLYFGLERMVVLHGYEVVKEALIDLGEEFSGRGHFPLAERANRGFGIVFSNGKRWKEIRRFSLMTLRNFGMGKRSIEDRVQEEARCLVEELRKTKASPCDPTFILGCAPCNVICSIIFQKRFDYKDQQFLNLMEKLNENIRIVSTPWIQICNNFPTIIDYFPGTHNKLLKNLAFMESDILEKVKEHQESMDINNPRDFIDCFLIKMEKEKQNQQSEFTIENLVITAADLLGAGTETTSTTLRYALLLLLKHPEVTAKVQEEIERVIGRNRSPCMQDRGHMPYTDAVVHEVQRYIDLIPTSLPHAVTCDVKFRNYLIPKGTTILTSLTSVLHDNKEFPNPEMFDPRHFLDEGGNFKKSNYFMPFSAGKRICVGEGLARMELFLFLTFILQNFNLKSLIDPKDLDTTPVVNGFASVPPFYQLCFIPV
UniProt P11712, whole entry: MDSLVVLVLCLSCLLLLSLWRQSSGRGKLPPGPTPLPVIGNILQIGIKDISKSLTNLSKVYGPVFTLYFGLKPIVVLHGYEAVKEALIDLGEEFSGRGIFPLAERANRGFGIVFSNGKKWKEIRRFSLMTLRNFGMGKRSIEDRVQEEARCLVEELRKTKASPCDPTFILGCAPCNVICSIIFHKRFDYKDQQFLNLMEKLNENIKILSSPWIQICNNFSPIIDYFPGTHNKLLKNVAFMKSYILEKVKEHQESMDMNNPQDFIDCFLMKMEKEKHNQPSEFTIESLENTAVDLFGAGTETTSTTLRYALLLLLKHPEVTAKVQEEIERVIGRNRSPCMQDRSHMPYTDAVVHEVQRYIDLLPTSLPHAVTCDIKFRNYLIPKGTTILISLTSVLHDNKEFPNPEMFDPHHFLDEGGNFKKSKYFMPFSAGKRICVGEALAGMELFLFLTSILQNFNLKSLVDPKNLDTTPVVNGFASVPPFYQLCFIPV

According to US20230002360A1, “Heterocycloalkyl compounds as CCR2 / CCR5 antagonists” (SHENZHEN LINGFANG BIOTECH CO.,LTD, priority 2019, published 2023):

Experiments:
CCR5 = CCR5 (Homo sapiens, UniProt P51681); test: FLIPR calcium assay, CCR5 cell line; conditions: read-out: IC50 (nM) test results for FLIPR detection, CCR5; HEK293 host cell, RANTES agonist, intracellular calcium signal
CCR2 = CCR2 (Homo sapiens, UniProt P41597); test: FLIPR calcium assay, CCR2 cell line; conditions: read-out: IC50 (nM) test results for FLIPR detection, CCR2; HEK293 host cell, MCP-1 agonist, intracellular calcium signal
CYP2D6 = CYP2D6 (Homo sapiens, UniProt P10635); test: Inhibition of human liver microsomal CYP2D6 (dextromethorphan probe); type: in vitro ADME; conditions: read-out: Half inhibitory concentration IC50, CYP2D6, human liver microsomes
Experimental: (§1) Experimental Example 2. Inhibition of human liver microsomal cytochrome P450 isoenzymes (CYP1A2, CYP2C9, CYP2C19, CYP2D6 and CYP3A4) activity
(§2) A total of 5 specific probe substrates of 5 CYP isozymes, which are phenacetin (PHenacetin, CYP1A2), diclofenac (Diclofenac, CYP2C9), (S)-mephenytoin ((S)-MepHenytoin, CYP2C19), dextromethorpHan (CYP2D6), and midazolam (Midazolam, CYP3A4), were incubated with human liver microsomes respectively. Then, reduced nicotinamide adenine dinucleotide phosphate (NADPH) was added to initiate reaction. After the reaction, the sample is processed and quantitatively detected for the concentrations of the five metabolites produced from the specific substrate, acetaminophen (AcetaminopHen), 4′-hydroxydiclofenac (4′-Hydroxydiclofenac), 4′-Hydroxymephenytoin (4′-HydroxymepHenytoin), Dextrorphan (DextrorpHan), and 1′-Hydroxymidazolam (1′-Hydroxymidazolam) by liquid chromatography-quadrupole mass spectrometry (LC-MS/MS) method to calculate the corresponding half inhibitory concentration (IC50).

[1] = test system: human liver microsomal cytochrome P450 isoenzymes; test: Inhibition of human liver microsomal cytochrome P450 isoenzymes, overall conclusion; type: in vitro ADME; conditions: conclusion from Table 2
Experimental: as §1, §2

CYP1A2 = CYP1A2 (Homo sapiens, UniProt P05177); test: Inhibition of human liver microsomal CYP1A2 (phenacetin probe); type: in vitro ADME; conditions: read-out: Half inhibitory concentration IC50, CYP1A2, human liver microsomes
Experimental: as §1, §2

CYP3A4 = CYP3A4 (Homo sapiens, UniProt P08684); test: Inhibition of human liver microsomal CYP3A4 (midazolam probe); type: in vitro ADME; conditions: read-out: Half inhibitory concentration IC50, CYP3A4-M, human liver microsomes
CYP2C19 = CYP2C19 (Homo sapiens, UniProt P33261); test: Inhibition of human liver microsomal CYP2C19 ((S)-mephenytoin probe); type: in vitro ADME; conditions: read-out: Half inhibitory concentration IC50, CYP2C19, human liver microsomes
Experimental: as §1, §2

CYP2C9 = CYP2C9 (Homo sapiens, UniProt P11712); test: Inhibition of human liver microsomal CYP2C9 (diclofenac probe); type: in vitro ADME; conditions: read-out: Half inhibitory concentration IC50, CYP2C9, human liver microsomes
Experimental: as §1, §2

IC50 (CCR5)	IC50 (CCR2)	Compound	also measured
15.7 nM	48.9 nM	CCCCOCCOc1ccc(-c2ccc3c(c2)C=C(C(=O)Nc2ccc([S@+]([O-])Cc4c(C)ncn4CC)cc2)CCN3C[C@@H]2CN(C)CCO2)cc1	–
4.12 nM	3.9 nM	CCCCOCCOc1ccc(-c2ccc3c(c2)/C=C(/C(=O)Nc2ccc([S@+]([O-])Cc4c(C)ncn4CC)cc2)CCCN3CC2COCCN2C)cc1 (stereo partly shown)	–
0.65 nM	4.97 nM	CCCCOCCOc1ccc(-c2ccc3c(c2)C=C(C(=O)Nc2ccc([S@+]([O-])Cc4c(C)ncn4CC)cc2)CCN3C[C@@H]2COCCN2C)cc1	–
10.3 nM	21 nM	CCCCOCCOc1ccc(-c2ccc3c(c2)C=C(C(=O)Nc2ccc([S@+]([O-])Cc4c(C)ncn4CC)cc2)CCN3C[C@H]2CN(C)CCO2)cc1	–
2.45 nM	2.62 nM	CCCCOCCOc1ccc(-c2ccc3c(c2)/C=C(/C(=O)Nc2ccc([S@+]([O-])Cc4c(C)ncn4CC)cc2)CCCN3C[C@@H]2CN(C)CCO2)cc1	–
7.33 nM	7.48 nM	CCCCOCCOc1ccc(-c2ccc3c(c2)C=C(C(=O)Nc2ccc([S@+]([O-])Cc4c(C)ncn4CC)cc2)CCN3CC2COC2)cc1	–
3.29 nM	6.19 nM	CCCCOCCOc1ccc(-c2ccc3c(c2)C=C(C(=O)Nc2ccc([S@+]([O-])Cc4c(C)ncn4CC)cc2)CCN3C[C@H]2CCOC2)cc1	–
6.99 nM	18.1 nM	CCCCOCCOc1ccc(-c2ccc3c(c2)C=C(C(=O)Nc2ccc([S@+]([O-])Cc4c(C)ncn4CC)cc2)CCN3C[C@H]2COCCN2C)cc1	–
5.62 nM	7.65 nM	CCCCOCCOc1ccc(-c2ccc3c(c2)C=C(C(=O)Nc2ccc([S@+]([O-])Cc4c(C)ncn4CC)cc2)CCN3CC2CCOCC2)cc1	–

Compound	IC50 (CCR5)	IC50 (CCR2)	also measured
CCCCOCCOc1ccc(-c2ccc3c(c2)/C=C(/C(=O)Nc2ccc([S@+]([O-])Cc4c(C)ncn4CC)cc2)CCCN3C[C@H]2CN(C)CCO2)cc1	0.76 nM	1.59 nM	–
CCCCOCCOc1ccc(-c2ccc3c(c2)C=C(C(=O)Nc2ccc([S@+]([O-])Cc4c(C)ncn4CC)cc2)CCN3C[C@@H]2CCOC2)cc1	4.33 nM	6.82 nM	IC50 (CYP2D6): > 50000 nM; risk of inhibiting the activity of human liver microsomal cytochrome P450 isoenzymes (in words) [1]: no risk of inhibiting the activity; IC50 (CYP1A2): > 50000 nM; IC50 (CYP3A4): > 50000 nM; IC50 (CYP2C19): > 50000 nM; IC50 (CYP2C9): 22800 nM
